The record followed here is publication PMC6405930, “Conservation of the Amyloid Interactome Across Diverse Fibrillar Structures” (Scientific Reports, 2019).

Chains of the proteins cited; added tags and fusions are not shown. Residues count along the entry.
UniProt P05067, 672-711: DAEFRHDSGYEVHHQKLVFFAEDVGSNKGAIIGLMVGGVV

Each structure is given as a SMILES string. Where two headings read alike, the source gives them in different places.

For one assay, the target named is Ab2 fibrils (Aβ(1–40)) (Homo sapiens, UniProt P05067). Description: Fibril titration with ThT (fluorescence). Particulars: 7.5 μg fibril material, two-site binding model. On the procedure:
(§1) Fibril material (7.5 μg) was set up in 100 μL phosphate buffer in a 96 well half-area NBS plate (NUNC/Terma).

The target in another assay is Ab1 fibrils (Aβ(1–40)) (Homo sapiens, UniProt P05067). Description: Fibril titration with ThT (fluorescence). Particulars: 7.5 μg fibril material, two-site binding model. On the procedure:
as §1

The mark [1] stands for this setting: read-out: dissociation constant kd1.
[2] abbreviates: read-out: dissociation constant kd2.

Turning to `Cc1ccc2c(c1)sc(-c1ccc(N(C)C)cc1)[n+]2C` [ThT, Thioflavin T], the Kd at Ab2 fibrils (Aβ(1–40)) (setting [1]) worked out at 0.4 ± 0.01 µM; at Ab2 fibrils (Aβ(1–40)) (setting [2]), 0.8 µM; on Ab1 fibrils (Aβ(1–40)) (setting [1]) it was 0.4 ± 0.01 µM; on Ab1 fibrils (Aβ(1–40)) (setting [2]), 0.82 ± 0.02 µM.
